Test results published in patent US12130255B2, “High-throughput label-free enzymatic bioassays using DESI-MS” (priority 2020, dated 2024).

By UniProt entry, the sequences of proteins in these tests, tags left out. Residues count along the entry.
UniProt P22303, 32-614: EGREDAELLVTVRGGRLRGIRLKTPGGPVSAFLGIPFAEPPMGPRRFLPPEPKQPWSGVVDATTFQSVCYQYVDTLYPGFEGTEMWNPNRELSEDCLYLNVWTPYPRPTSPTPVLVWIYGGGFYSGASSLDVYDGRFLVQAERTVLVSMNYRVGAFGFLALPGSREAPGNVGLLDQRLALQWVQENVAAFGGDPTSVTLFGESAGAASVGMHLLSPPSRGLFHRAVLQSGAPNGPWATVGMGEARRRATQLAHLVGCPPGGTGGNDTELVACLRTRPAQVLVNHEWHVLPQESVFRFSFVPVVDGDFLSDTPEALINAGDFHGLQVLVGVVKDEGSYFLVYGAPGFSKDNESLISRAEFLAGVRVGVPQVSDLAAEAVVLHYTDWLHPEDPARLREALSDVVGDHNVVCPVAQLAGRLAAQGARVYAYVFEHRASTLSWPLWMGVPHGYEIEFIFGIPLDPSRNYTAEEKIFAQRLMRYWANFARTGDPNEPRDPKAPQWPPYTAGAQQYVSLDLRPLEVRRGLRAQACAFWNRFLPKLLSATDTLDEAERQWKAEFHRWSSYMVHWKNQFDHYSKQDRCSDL

Molecular target: acetylcholinesterase (Homo sapiens, UniProt P22303)
Format: biochemical

C[n+]1ccccc1C=NO [2-pralidoxime]
Reactivation efficiency: 45±2% and 87±5%
Reactivation efficiency (after inhibition with 0.75 μM paraoxon, 2-pralidoxime 100 μM): 76±3%

Values joined by “and” are separate entries in the source; they are usually repeats but may differ in a detail not shown here. Equal values may be shown once. Read-outs that look alike come from different tables or passages of the source.
